Here are results for 4 molecules from US20250163057A1, “DCN-1 MODULATING COMPOUNDS AND METHODS OF USE THEREOF” (Cellarity, Inc., priority 2023, published 2025).

The chains behind the UniProt entries cited, without tags or fusion partners. Residues count along the entry.
UniProt Q96GG9, 60-248 limits assumed: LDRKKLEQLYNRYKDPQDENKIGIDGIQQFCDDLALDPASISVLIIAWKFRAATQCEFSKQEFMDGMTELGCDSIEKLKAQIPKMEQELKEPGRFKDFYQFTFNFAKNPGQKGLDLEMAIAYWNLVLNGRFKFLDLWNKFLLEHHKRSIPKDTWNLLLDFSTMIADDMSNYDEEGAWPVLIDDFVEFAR
UniProt Q96GG9, whole entry: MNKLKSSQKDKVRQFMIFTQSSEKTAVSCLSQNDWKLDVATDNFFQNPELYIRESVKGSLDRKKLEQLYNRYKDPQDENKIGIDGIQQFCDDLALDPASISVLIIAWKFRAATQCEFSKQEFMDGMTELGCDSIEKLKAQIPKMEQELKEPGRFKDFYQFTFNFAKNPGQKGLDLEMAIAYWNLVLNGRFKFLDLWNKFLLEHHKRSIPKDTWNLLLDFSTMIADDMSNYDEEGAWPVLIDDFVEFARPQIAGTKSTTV

The target in assay [1] is DCN1 (DCUND1) protein PONY domain (Homo sapiens (Human), UniProt Q96GG9). Description: TR-FRET assay, DCN1 binding with FAM-labeled probe. As to conditions: read-out: TR FRET IC50 24 hr; 24 hr after treatment with compound. On the technique in general: Time-resolved FRET reads energy transfer from a long-lived donor to a nearby acceptor.
The subject of assay [2] is Cullin-3 (CUL3) neddylation. Description: AlphaLISA assay for Cullin-3 (CUL3) neddylation in TF 1 cells. The settings on record: read-out: Neddylation IC50, 3 hours treatment.
A further assay concerns the target DCN1 protein (Homo sapiens (Human), UniProt Q96GG9). The assay is described as follows: Intact Protein MS Analysis with the RapidFire-TOF System (covalent adduct formation). As to conditions: MS Emax; 400 nM DCN1, 3 hours at room temperature.

By IC50 is commonly meant the concentration needed to halve the response being measured. With `CCN1C(=O)[C@@H](NC(=O)c2cccc(Cl)c2)[C@@H](C2CC2)c2c(C(=O)N3[C@H](C#N)C[C@H]4C[C@H]43)nn(C3CCOCC3)c21`, the IC50 in assay [1] is below 200 nM; in assay [2], below 100 nM. Besides, on DCN1 protein, the “% Adduct Formation” value was “+++ (MS Emax % adduct formation greater than 80.0 and less than or equal to 100.0)”. As to `CCN1C(=O)[C@@H](NC(=O)Cc2ccc(OC(F)(F)F)cc2)[C@@H](C2CC2)c2c(C(=O)N3[C@H](C#N)C[C@H]4C[C@H]43)nn(C3CCOCC3)c21`, in assay [1], the IC50 was 1000 to 3000 nM. On to `CCN1C(=O)[C@@H](NC(=O)Cc2c(F)ccc(C)c2Cl)[C@@H](C2CC2)c2c(C(=O)N3[C@H](C#N)C[C@H]4C[C@H]43)nn(C3CCOCC3)c21`, for which, in assay [1], the half-inhibitory concentration (IC50) was in the range of 1000 to 3000 nM.

Consider `CCN1C(=O)[C@@H](NC(=O)c2ccc3[nH]cnc3c2)[C@@H](C2CC2)c2c(C(=O)N3[C@H](C#N)C[C@H]4C[C@H]43)nn(C3CCOCC3)c21` [Compound I-632], for which the figures for the half-inhibitory concentration (IC50) in assay [1] and in assay [2] were 200 to 1000 nM and 100 to 1000 nM, respectively.
